Biological target: human NK-1 receptor (Homo sapiens, UniProt P25103)
Experiment: Neurokinin receptor binding assay, NK-1 ([3H]-Substance P, CHO cell membranes)
Settings: read-out: Ki(NK1); Ki according to Cheng and Prusoff from competition binding curves
Protocol: Chinese Hamster ovary (CHO) cells transfected with the coding regions for the human neurokinin 1 (NK1) of the human neurokinin 2 (NK2) receptors are grown in Dulbecco's minimal essential medium supplemented with 10% fetal calf serum, 0.1 mM non-essential amino acids, 2 mM glutamine, 100units/ml of penicillin and streptomycin, and 0.8 mg of G418/ml at 37°C in a humidified atmosphere containing 5% CO2.
Cells are detached from T-175 flasks with a sterile solution containing 5mM EDTA in phosphate buffered saline. Cells are harvested by centrifugation and washed in RPMI media at 40°C for 5 minutes. […]
To assay receptor binding, 50 µl of [^3H]-Substance P (9-Sar, 11-Met) (specific activity 41 Ci/mmol) (Dupont-NEN) (0.8 nM for the NK-1 assay) or [^3H]-Neurokinin A (specific activity 114 Ci/ mmole) (Zenca) (1.0 nM for the NK-2 assay) is added to tubes containing buffer (50 mM Tris-HCl (pH 7.4) with 1 mM MnCl2 and 0.2% Bovine Serum Albumin) and either DMSO or test compound. […] Filters are added to 6 mls of Ready-Safe liquid scintillation cocktail and quantified by liquid scintillation spectrometry in a LKB 1219 RackBeta counter. Non-specific binding is determined by the addition of either 1 µM of CP-99994 (NK-1) or 1µM SR-48968 (NK-2) (both synthesized by the chemistry department of Schering-Plough Research Institute). […]

The chains behind the UniProt entries cited, without tags or fusion partners.
UniProt P25103, whole entry: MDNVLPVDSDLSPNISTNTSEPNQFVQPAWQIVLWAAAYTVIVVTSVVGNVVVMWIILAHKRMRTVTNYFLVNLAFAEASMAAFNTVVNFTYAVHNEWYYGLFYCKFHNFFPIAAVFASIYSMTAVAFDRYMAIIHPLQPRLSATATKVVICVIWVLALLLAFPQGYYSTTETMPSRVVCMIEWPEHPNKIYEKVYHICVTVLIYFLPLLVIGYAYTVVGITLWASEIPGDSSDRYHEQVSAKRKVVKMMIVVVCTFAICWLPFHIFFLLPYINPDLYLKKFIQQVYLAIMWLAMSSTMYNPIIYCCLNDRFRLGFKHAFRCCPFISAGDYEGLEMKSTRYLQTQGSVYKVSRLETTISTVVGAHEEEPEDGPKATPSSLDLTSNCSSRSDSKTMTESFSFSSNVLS

Ki: 30 nM
Structure (SMILES): CN(CCc1c[nH]c2ccccc12)CCC(CN(C)C(=O)c1cc([N+](=O)[O-])cc(C(F)(F)F)c1)c1ccc(Cl)c(Cl)c1 (stereo not shown)
